Biological target: T1, PPARα (Homo sapiens, UniProt Q07869)
T1 construct: PPARα (aa 167 to 469); expressed in transfected cells; host or cells: BHK21 (ATCC CCL10)
T1 sequence (Q07869 167-468 limits assumed): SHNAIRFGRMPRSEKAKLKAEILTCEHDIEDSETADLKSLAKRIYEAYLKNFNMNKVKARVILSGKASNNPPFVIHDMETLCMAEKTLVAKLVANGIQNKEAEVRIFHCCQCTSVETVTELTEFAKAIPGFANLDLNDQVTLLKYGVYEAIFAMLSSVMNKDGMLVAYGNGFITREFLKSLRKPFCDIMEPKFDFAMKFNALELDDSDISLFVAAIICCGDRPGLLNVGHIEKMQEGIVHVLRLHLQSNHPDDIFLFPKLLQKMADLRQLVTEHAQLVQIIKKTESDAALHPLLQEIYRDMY
Assay: Luciferase transcriptional reporter gene assay, pFA-PPARα-LBD in BHK21 cells
Assay type: cell-based

PPARα EC50: inactive
SMILES: CN(CCOc1ccc(CC2SC(=O)NC2=O)cc1)c1ccccn1 (stereo not shown) [Rosiglitazone, reference compound]

— patent US7098228B2, “Indolyl derivatives” (Hoffmann-La Roche Inc., priority 2002, dated 2006)
